# Test results reported in publication PMC10079235 (PLOS Neglected Tropical Diseases, 2023).
# System: HCT-8/NC(PTX) cells
# Conditions: human, 41 h
# Experimental: Host cell drug tolerance to specified inhibitors was evaluated by 3-(4,5-dimethylthiazol-2-yl)-5-(3-carboxymethoxyphenyl)-2-(4-sulfophenyl)-2H-tetrazolium (MTS) assay. WT and transgenic host cells were seeded in 96-well plates (10,000 cells/well) and cultured for 24 h, followed by the addition of specified compounds at serially diluted concentrations and continued culture for 41 h. After 3 washes with serum-free medium, MTS solution (Saint-Bio, Shanghai, China) was added into the plates (20 μL/well) and incubated at 37°C for 2 h. Optical density at 490 nm (OD490) was measured using a Synergy LX multi-mode reader (BioTek, Winooski, VT). Drug tolerance was indicated by half-maximal cytotoxic concentrations (TC50 values) calculated by nonlinear regression using 4PL model. Selectivity index (SI) for each compound was determined by the ratio between TC50 and EC50 values (SI = TC50/EC50).
# Surviving cells were allowed to recover in drug-free medium for 3–5 d to near confluence (round 1). The selection/recovery cycle were repeated once (round 2). […] The resulting cell lines after PTX or NTZ selection were designated as WT(PTX), NC(PTX) and MDR1(PTX), or WT(NTZ), NC(NTZ) and MDR1(NTZ), respectively (Tables 1 and S2).
structure (smiles),measurement,value
CC(=O)O[C@H]1C(=O)[C@@]2(C)[C@H]([C@H](OC(=O)c3ccccc3)[C@]3(O)C[C@H](OC(=O)[C@H](O)[C@@H](NC(=O)c4ccccc4)c4ccccc4)C(C)=C1C3(C)C)[C@]1(OC(C)=O)CO[C@@H]1C[C@@H]2O [Paclitaxel],TC50,15.20 µM
